# Patent US8530460B2, “Azetidine derivatives” (Boehringer Ingelheim International GmbH, priority 2011, dated 2013)
# Sequences of proteins named here, by UniProt entry; tags and fusion partners are left off. Residues count along the entry.
# UniProt O00763, 129-2458 limits assumed: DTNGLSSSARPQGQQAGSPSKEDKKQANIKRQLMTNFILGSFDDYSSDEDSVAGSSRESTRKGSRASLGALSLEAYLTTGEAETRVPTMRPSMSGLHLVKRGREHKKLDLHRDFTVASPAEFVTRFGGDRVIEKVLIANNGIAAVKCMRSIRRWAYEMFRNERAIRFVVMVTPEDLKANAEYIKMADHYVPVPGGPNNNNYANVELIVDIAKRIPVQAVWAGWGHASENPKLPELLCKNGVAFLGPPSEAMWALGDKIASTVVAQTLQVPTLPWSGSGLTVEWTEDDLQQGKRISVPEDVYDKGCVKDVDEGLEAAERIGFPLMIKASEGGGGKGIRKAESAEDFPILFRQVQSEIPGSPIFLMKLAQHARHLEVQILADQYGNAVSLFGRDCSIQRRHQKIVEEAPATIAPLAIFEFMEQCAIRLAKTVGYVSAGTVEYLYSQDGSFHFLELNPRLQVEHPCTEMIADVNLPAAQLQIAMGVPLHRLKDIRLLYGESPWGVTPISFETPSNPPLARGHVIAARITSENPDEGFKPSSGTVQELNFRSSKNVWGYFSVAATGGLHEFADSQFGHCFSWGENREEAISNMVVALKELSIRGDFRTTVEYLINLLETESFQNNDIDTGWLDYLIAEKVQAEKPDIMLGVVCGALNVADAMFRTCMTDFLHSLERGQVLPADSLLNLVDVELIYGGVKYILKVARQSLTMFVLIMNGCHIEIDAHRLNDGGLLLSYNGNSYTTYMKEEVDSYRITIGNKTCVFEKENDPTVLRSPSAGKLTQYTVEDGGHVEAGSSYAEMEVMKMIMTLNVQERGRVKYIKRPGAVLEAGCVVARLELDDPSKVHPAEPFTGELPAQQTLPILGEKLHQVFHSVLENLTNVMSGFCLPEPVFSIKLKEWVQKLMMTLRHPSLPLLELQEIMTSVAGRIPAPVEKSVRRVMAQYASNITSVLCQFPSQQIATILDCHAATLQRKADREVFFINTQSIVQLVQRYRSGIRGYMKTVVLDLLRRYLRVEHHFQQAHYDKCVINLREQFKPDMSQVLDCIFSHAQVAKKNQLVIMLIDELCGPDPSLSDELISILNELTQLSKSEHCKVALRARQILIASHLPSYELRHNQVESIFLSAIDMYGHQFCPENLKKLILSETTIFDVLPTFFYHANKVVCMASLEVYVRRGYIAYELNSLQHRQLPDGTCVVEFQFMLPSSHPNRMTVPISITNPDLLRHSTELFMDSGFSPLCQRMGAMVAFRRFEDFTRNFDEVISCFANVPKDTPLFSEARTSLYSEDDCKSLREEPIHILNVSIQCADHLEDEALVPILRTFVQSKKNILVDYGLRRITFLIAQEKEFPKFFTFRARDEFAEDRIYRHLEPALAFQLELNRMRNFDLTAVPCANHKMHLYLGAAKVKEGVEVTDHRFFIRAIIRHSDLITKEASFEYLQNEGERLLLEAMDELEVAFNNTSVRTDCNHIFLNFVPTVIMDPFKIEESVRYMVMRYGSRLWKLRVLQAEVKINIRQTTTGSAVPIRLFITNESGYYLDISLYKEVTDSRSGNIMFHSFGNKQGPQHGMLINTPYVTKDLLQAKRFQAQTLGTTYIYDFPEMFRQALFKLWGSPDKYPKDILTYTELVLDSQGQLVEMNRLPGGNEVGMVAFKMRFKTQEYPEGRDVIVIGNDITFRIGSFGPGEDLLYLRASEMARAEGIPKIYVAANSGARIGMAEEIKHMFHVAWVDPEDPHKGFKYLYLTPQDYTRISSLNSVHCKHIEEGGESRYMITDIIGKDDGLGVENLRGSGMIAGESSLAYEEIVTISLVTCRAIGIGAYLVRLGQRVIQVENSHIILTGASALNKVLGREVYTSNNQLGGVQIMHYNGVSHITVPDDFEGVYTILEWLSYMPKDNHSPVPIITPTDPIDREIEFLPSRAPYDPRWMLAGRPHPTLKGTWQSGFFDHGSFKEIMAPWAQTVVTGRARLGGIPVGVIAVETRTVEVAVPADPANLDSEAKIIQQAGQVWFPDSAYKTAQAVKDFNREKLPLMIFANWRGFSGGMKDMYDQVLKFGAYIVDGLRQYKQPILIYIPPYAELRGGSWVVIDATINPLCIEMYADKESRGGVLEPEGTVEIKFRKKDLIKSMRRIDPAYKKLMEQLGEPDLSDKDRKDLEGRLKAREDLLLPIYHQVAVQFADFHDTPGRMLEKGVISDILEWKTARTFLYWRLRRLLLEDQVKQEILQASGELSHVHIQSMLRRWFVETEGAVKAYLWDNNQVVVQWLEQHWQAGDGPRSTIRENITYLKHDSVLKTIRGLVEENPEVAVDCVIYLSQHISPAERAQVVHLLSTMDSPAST
# Where two headings read alike, the source gives them in different places.
# Molecular target: human ACC2 (Homo sapiens (Human), UniProt O00763)
# Assay: ACC2 assay (spectrophotometric 384 well assay, NADH-linked coupled lactate dehydrogenase/pyruvate kinase)
# [1] = hACC2 construct lacking 128 N-terminal amino acids, 25° C., 340 nm, 15 minutes
Compound,IC50 [µM],IC50 [1] [µM]
CCOc1ccc(N2CC(Oc3ccc([C@H](C)NC(C)=O)cc3)C2)cc1OCC,2.55,–
CC(=O)N[C@@H](C)c1ccc(OC2CN(c3ccc(Cl)cn3)C2)cc1,–,0.46
CCOc1ccc(N2CC(Oc3ccc([C@H](C)NC(=O)c4ccncc4)cc3)C2)cc1,–,1.26
